From patent US9284423B2, “Crosslinkable composition crosslinkable by real michael addition (RMA) reaction” (NUPLEX RESINS B.V., priority 2011, dated 2016)

Experiment: Determination of Michael addition reactivity (Example 12): loss of X-H component in butyl acrylate/methanol at room temperature, by back-titration (GC for dimethylmalonate)
Format: physicochemical
Conditions: with strong base, same method as for succinimide
Description: 5 grams of succinimide (50.5 mmole) were dissolved in a mixture of 42 grams of butyl acrylate and 42 grams of methanol, and maintained at room temperature as such, or after adding a strong base (9.82 grams of a 1.12 meq/g solution of tetrabutylammonium hydroxide in methanol, 11 meq). Subsequently, the concentration of succinimide is determined as a function of time by taking samples, neutralizing with a known excess of HCl in water, and backtitration with a KOH solution. […] With the base added, the succinimide concentration can be seen to decrease with time, as illustrated in the table F below. Succinimide concentration is expressed as % relative to the theoretical level based on used amounts.
Using the same method, also the reactivity for various other components was determined; as a reference a similar set-up was used for the reactivity of dimethylmalonate under these conditions (only in this case, the remaining DMM level was determined with GC). Table G lists the results of the relative Michael addition reactivities, expressed as a number indicating the initial increase in % conversion, per minute, under these conditions.

In the case of `NS(=O)(=O)c1ccccc1` [benzenesulfonamide], the “Relative conversion rates (relative Michael addition reactivity: initial increase in % conversion, per minute)” value is reported as 0.11 % conversion, per minute.
